What was measured:
[1] = target: A1 adenosine receptor (Rattus norvegicus, UniProt P25099); settings: read-out: A1 Ki; cited from earlier work
[2] = tested on: A2A adenosine receptor; assay: A2A adenosine receptor affinity from the literature (Matuszczak et al. 1998); type: binding; settings: A2A over A1
[3] = target: A2A adenosine receptor (Rattus norvegicus, UniProt P30543); settings: read-out: A2A Ki; cited from earlier work

By UniProt entry, the sequences of proteins in these tests, tags left out. Where a name states a change or a piece, a line headed by the entry shows the natural chain unless it says otherwise.
UniProt P25099, whole entry: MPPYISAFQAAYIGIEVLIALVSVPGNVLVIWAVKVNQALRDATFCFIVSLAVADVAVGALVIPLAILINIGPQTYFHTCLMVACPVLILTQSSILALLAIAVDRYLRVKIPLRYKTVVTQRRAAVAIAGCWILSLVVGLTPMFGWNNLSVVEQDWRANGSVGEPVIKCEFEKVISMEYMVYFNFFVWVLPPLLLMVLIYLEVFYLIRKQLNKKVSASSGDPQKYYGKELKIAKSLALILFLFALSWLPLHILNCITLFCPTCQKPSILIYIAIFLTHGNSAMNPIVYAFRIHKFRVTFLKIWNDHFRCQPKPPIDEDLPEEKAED
UniProt P30543, whole entry: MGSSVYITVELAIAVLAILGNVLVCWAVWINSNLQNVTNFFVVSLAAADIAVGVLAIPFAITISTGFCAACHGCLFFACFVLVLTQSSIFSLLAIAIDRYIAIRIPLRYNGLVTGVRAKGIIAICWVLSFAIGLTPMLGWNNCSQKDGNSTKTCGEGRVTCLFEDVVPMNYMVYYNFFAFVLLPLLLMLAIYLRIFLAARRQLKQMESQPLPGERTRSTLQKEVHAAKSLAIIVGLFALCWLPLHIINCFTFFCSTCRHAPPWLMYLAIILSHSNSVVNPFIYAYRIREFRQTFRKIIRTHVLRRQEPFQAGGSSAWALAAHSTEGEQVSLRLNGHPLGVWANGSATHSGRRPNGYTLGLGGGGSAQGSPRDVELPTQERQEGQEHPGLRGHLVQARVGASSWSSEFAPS

Question: With `Cc1nnc2c(-c3cc(Cl)n[nH]3)nc3ccccc3n12` as the compound, how does the Ki [1] read?
Answer: 7.85 µM

Question: And the selectivity factor [2]?
Answer: about 5

Question: What about the Ki [3] of the same compound?
Answer: 1.43 µM

From patent US20050107611A1, “Pyrazolyl-substituted triazoloquinoxalines” (priority 2001, published 2005)
